Results as given in ChEMBL document CHEMBL1136295, “Synthesis of a new reactivator of tabun-inhibited acetylcholinesterase” (2003).

Key:
[1] = molecular target: T1, Acetylcholinesterase (Rattus norvegicus) (UniProt P37136); assay: In vitro dissociation constant of rat brain Acetylcholinesterase (AChE) inhibitor reactivator complex was determined
T1 sequence (whole entry): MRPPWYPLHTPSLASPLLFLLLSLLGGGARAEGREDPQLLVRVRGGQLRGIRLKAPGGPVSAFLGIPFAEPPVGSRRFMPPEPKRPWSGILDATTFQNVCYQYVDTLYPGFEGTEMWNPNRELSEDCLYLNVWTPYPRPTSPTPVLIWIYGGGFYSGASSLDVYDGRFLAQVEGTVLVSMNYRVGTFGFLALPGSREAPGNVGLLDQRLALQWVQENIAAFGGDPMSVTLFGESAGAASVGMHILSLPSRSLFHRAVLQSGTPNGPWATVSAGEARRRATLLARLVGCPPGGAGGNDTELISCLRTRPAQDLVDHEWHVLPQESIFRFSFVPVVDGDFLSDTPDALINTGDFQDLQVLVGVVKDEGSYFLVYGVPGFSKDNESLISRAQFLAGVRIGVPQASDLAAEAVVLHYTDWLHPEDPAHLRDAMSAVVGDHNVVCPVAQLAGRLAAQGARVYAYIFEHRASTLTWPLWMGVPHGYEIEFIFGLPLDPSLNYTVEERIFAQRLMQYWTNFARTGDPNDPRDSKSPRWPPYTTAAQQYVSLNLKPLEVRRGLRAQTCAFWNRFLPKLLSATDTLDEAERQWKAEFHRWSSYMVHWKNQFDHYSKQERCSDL

[2] = molecular target: T1, Acetylcholinesterase (Rattus norvegicus); assay: Bimolecular constants of reactivation was determined by its ability to reactivate tabun-inhibited AchE.
[3] = molecular target: T1, Acetylcholinesterase (Rattus norvegicus); assay: First-order rate constant for acetylcholinesterase was determined in vitro in rat brain
[4] = molecular target: T1, Acetylcholinesterase (Rattus norvegicus); assay: In vitro dissociation constant of rat brain Acetylcholinesterase (AChE)-reactivator complex was determined

SMILES	KR [1]	kr [2]	kR [3]	K diss [4]
NC(=O)c1cc[n+](COC[n+]2ccccc2/C=N/O)cc1	6.3 µM	1110 min1 M1	0.007 min	
C[n+]1ccccc1C=NO				210 µM
NC(=O)c1cc[n+](CCCC[n+]2ccc(/C=N/O)cc2)cc1	93 µM	348 min1 M1	0.0324 min	228 µM
